The assay deals with phosphorylation of Y397-FAK in MDA-231-LNA cells (Homo sapiens (Human), UniProt Q05397). It is filed as cell-based. To be noted: 1 hour treatment, pFAK-397 levels.

Protein sequences, listed by entry. Tags and fused reporters are not part of them.
UniProt Q05397, whole entry: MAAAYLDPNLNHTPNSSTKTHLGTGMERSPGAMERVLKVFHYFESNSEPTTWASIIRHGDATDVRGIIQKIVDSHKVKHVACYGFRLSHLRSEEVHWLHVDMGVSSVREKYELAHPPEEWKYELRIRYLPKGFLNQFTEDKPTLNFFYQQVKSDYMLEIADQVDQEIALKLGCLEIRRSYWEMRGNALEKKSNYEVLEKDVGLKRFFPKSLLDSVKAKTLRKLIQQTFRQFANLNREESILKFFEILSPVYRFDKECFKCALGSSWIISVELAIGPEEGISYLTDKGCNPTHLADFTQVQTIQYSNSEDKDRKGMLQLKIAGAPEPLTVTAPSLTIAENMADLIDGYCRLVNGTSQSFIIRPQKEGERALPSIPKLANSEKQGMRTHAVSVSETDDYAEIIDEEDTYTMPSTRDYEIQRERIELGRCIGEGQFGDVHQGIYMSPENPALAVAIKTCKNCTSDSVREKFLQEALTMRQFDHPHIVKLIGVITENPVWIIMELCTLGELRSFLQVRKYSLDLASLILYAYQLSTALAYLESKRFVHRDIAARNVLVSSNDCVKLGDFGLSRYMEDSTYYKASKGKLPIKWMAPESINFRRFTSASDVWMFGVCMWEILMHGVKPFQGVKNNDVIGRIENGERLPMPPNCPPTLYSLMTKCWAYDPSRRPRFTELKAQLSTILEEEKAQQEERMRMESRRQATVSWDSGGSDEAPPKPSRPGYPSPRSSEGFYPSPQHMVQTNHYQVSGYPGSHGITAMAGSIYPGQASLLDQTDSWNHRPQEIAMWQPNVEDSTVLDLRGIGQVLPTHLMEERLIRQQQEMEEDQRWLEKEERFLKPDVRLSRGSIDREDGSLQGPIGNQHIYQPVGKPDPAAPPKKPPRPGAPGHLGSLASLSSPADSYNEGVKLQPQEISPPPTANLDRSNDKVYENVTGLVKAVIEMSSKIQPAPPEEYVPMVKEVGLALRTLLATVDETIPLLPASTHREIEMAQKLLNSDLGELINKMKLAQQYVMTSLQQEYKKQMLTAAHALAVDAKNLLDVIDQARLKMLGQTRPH

`CCN1CCC(c2ccc(Nc3ncc(C(F)(F)F)c(CCc4ccccc4CC(N)=O)n3)c(OC)c2)CC1` [Compound 4, 2-(2-(2-(2-((4-(1-Ethylpiperidin-4-yl)-2-methoxyphenyl)amino)-5-(trifluoromethyl)pyrimidin-4-yl)ethyl)phenyl) acetamide]: inhibition was half-maximal at 13 nM (IC50).

`COc1cc(C2CCNCC2)ccc1Nc1ncc(C(F)(F)F)c(CCc2ccccc2CC(N)=O)n1` [Compound 2, 2-(2-(2-(2-((2-Methoxy-4-(piperidin-4-yl)phenyl)amino)-5-(trifluoromethyl)pyrimidin-4-yl)ethyl)phenyl)acetamide]: inhibition was half-maximal at 12 nM (IC50). This IC50 and that of the compound before are within 1.5-fold of each other.

On to `CN1CCC(c2ccc(Nc3ncc(C(F)(F)F)c(CCc4ccccc4CC(N)=O)n3)c(F)c2)CC1` [Compound 13, 2-(2-(2-(2-((2-Fluoro-4-(1-methylpiperidin-4-yl)phenyl)amino)-5-(trifluoromethyl)pyrimidin-4-yl)ethyl)phenyl)acetamide], for which it took 14 nM to reach half-maximal inhibition (IC50). This IC50 and that of the compound before are within 1.5-fold of each other.

For `COc1cc(C2CCN(C)CC2)ccc1Nc1ncc(C(F)(F)F)c(CCc2cccc(C(N)=O)c2)n1` [Compound 6, 3-(2-(2-((2-Methoxy-4-(1-methylpiperidin-4-yl)phenyl)amino)-5-(trifluoromethyl)pyrimidin-4-yl)ethyl)benzamide], half-maximal inhibition (IC50) was put at 264 nM.

As to `NC(=O)Cc1ccccc1CCc1nc(Nc2ccc(C3CCNCC3)cc2OC(F)(F)F)ncc1C(F)(F)F` [Compound 10, 2-(2-(2-(2-((4-(Piperidin-4-yl)-2-(trifluoromethoxy)phenyl)amino)-5-(trifluoromethyl)pyrimidin-4-yl)ethyl)phenyl)acetamide], it took 114 nM to reach half-maximal inhibition (IC50).

`COc1cc(N2CCNCC2)ccc1Nc1ncc(C(F)(F)F)c(CCc2ccccc2CC(N)=O)n1` [Compound 1, 2-(2-(2-(2-((2-Methoxy-4-(piperazin-1-yl)phenyl)amino)-5-(trifluoromethyl)pyrimidin-4-yl)ethyl)phenyl)acetamide]: the IC50 (usually the concentration that gives 50% inhibition) was 9 nM.

Turning to `COc1cc(C2CCN(C)CC2)ccc1Nc1ncc(C(F)(F)F)c(CCc2ccccc2CC(N)=O)n1` [Compound 3, 2-(2-(2-(2-((2-Methoxy-4-(1-methylpiperidin-4-yl)phenyl)amino)-5-(trifluoromethyl)pyrimidin-4-yl)ethyl)phenyl)acetamide], 7 nM corresponded to half-maximal inhibition (IC50). The IC50 values of the last two compounds are within 1.5-fold of each other.

`CN1CCC(c2ccc(Nc3ncc(C(F)(F)F)c(CCc4ccccc4CC(N)=O)n3)c(OC(F)(F)F)c2)CC1` [Compound 11, 2-(2-(2-(2-((4-(1-Methylpiperidin-4-yl)-2-(trifluoromethoxy)phenyl)amino)-5-(trifluoromethyl)pyrimidin-4-yl)ethyl)phenyl)acetamide] gave an IC50 of 16 nM.
